# Results reported in US20150132229A1, “BIS AZAINOSITOL HEAVY METAL COMPLEXES FOR X-RAY IMAGING” (BAYER PHARMA AKTIENGESELLSCHAFT, priority 2012, published 2015).
# Experiment: Stability of bis azainositol heavy metal complexes under heat sterilization (121° C., 45 min, pH 7.4; HPLC and ICP-OES)
# Conditions: aqueous buffered solution pH 7.4, 5 mmol/L, 121° C. for 45 min in steam autoclave; absolute stability = HPLC peak area ratio x metal concentration ratio after/before
substance,measurement,value
"Trisodium bis{μ3-[(all-cis)-2-{[(carboxy-1κO)methyl]amino-1κN}-4-{[(carboxy-2κO)methyl]amino-2κN}-6-{[(carboxy-3κO)methyl]amino-3κN}cyclohexane-1,3,5-triolate-1κ^2O^1,O^3:2κ^2O^3,O^5:3κ^2O^1,O^5]}triytterbate(III) [Example 6]",Stability,99%
